Reference: publication PMC10964233, “Antigen-Mimic Nanoparticles in Ultrasensitive on-Chip Integrated Anti-p53 Antibody Quantification” (ACS Sensors, 2024)

How the values were obtained:
[1] = tested on: DO-1 peptide/HRP-IONPs with Con A-modified SPCEs; assay: Assay specificity (SWV responses of interferents); settings: 1.0 mg/mL, equivalent MAC immunoisolation conditions; Figure S17
Experimental: Following a 10 min incubation of the antibody–IONP immunocomplexes on Con A-modified SPCEs, and subsequent washing with PBS, 100 μL of the high-sensitivity TMB substrate was added and left to react for 5 min. Square-wave voltammetry (SWV) scans were then conducted from +1.0 to −0.5 V (vs Ag/AgCl), at an amplitude of 20 mV, a potential step of 2 mV, and a frequency of 50 Hz. Specificity tests were carried out with 1.0 mg/mL human serum albumin (HSA), bovine serum albumin (BSA), 1.0% human serum, and 10 μg/mL IgG prepared in a PBS buffer. Recovery assays were conducted using DO-1 antibodies spiked into 1.0 mg/mL BSA or 1.0% human serum (human male AB plasma, Sigma, UK).
Assay specificity was assessed against 1.0 mg/mL BSA, HSA, 1.0% human serum, and 10.0 μg/mL immunoglobulin G (antibody control), with negligible voltammetric responses (<10% of that presented by 50 ng/mL DO-1 antibody) obtained under equivalent MAC immunoisolation conditions (Figure S17). To evaluate the performance in spiked samples, recovery tests were performed in 1.0 mg/mL BSA and diluted human serum. These tests yielded an average recovery of 96.7 ± 3.2% in BSA (Figure S18,n = 3) and 100.7 ± 5.0% in human serum (Figure 6, n = 5), indicative of robustly selective target recruitment.

[2] = tested on: Con A-modified electrode interfaces; assay: Antibody selectivity of Con A-modified electrode interfaces; type: binding; settings: 1.0 mg/mL nonspecific protein; Figure S7

Substance: human serum albumin [HSA]
- Voltammetric response relative to 50 ng/mL DO-1 antibody [1]: < 10%
- Response at Con A interface relative to DO-1 antibody [2]: < 10%
